Experimental data taken from patent publication US12661336B2, “Polymorphs of phenyl pyrrole aminoguandium salts” (SYNACT PHARMA APS, priority 2021, dated 2026).
Read-outs that look alike come from different tables or passages of the source.

Legend:
[1] = Thermodynamic solubility of AP1189 salts in 0.5 M and 0.2 M buffer solutions (Example 6, Tables 38a, 38b)
[2] = HPLC

With “N-{3-[1-(2-nitrophenyl)-1H-pyrrol-2-yl]-allylidene}-aminoguanidinium succinate [AP1189 succinate]” the “XRPD analysis of residual solids from solubility experiment” value ([1]; 0.5 M buffer, pH 1.2) was “Succinic acid was obtained”, the “solubility, comparison of salts (in words)” value ([1]; 0.5 M buffers, succinate Pattern 1 compared with fumarate Pattern 1) was “Higher solubility” and the “solubility at pH 1.2 (in words)” value ([1]; pH 1.2) was “high solubility”. For the same substance, the “ML conc.” value ([2]; Example 8, Ethanol:water 50:50 v/v %, mother liquor after cooling-only, 5° C.) was 6.15 mg/mL, the “ML conc.” value ([2]; Example 8, Ethanol:water 50:50 v/v %, mother liquor after isolation (after anti-solvent addition), 5° C.) was 6.14 mg/mL and the “ML conc.” value ([2]; Example 9, starting solvent 1-propanol:water (50:50% v/v), Final sample) was 3.37 mg/mL. For the same substance, the “ML conc.” value ([2]; Example 9, starting solvent 1-propanol:water (50:50% v/v), sample After ASA 1 (40:60 v/v), 5° C.) was 6.21 mg/mL and the “ML conc.” value ([2]; Example 10, starting solvent 1-propanol:water (50:50% v/v), anti-solvent water to 30:70% v/v, Final sample) was 3.19 mg/mL.
